From patent EP0800503B1, “NOVEL TRIENOIC RETINOID COMPOUNDS AND METHODS” (LIGAND PHARMACEUTICALS, INC., priority 1994, dated 1996)

How the values were obtained:
Assay type in all cases: cell-based
TPA induction of ODC = experiment: Ornithine decarboxylase (ODC) assay, inhibition of TPA induction of ODC; conditions: read-out: ODC IC80 (nM)
RPMI 8226 cell line = experiment: Incorporation of 3H-thymidine; conditions: Homo sapiens, RPMI-8226, 96 h, read-out: TdR IC50 (nM)
ME 180 cell line = experiment: Incorporation of 3H-thymidine; conditions: Homo sapiens, ME-180, 96 h, read-out: TdR IC50 (nM)

## CC1=C(/C=C/C(C)=C/C=C/C(C)=C/C(=O)O)C(C)(C)CCC1 [ATRA, all-trans retinoic acid, reference compound]
TPA induction of ODC
  IC80: 1.4 nM
RPMI 8226 cell line
  IC50: 102 nM
ME 180 cell line
  IC50: 253 nM
